Earlier results as cited in patent US8449896B2, “Pharmaceutical composition having improved solubility” (Daiichi Sankyo Company, Limited, priority 2009, dated 2013).

Chains of the proteins cited; added tags and fusions are not shown. Residues count along the entry.
UniProt P00742, 41-179 partner limits assumed: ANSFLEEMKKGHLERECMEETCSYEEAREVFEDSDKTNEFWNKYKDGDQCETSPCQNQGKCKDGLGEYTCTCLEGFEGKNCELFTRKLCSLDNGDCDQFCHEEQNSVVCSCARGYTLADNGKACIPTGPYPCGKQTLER
UniProt P00742, 235-488 limits assumed: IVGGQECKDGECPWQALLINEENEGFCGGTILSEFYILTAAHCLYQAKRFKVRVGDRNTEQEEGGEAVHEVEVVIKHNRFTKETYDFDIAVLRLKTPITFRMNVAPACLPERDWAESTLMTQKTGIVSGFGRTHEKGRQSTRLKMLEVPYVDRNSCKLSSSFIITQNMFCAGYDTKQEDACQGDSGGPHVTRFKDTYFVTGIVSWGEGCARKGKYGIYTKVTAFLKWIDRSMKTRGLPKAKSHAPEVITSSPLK

Target: activated blood coagulation factor X (FXa) (Homo sapiens, UniProt P00742)
Settings: known from Patent Documents 1 to 4; cited from earlier work

In the case of `CN1CCc2nc(C(=O)N[C@@H]3C[C@@H](C(=O)N(C)C)CC[C@@H]3NC(=O)C(=O)Nc3ccc(Cl)cn3)sc2C1` [compound I, N^1-(5-chloropyridin-2-yl)-N^2-((1S,2R,4S)-4-[(dimethylamino)carbonyl]-2-{[(5-methyl-4,5,6,7-tetrahydrothiazolo[5,4-c]pyridin-2-yl)carbonyl]amino}cyclohexyl)ethanediamide], the “inhibitory effect on activated blood coagulation factor X” value is listed as “potent inhibitory effect”.
